1 molecule from patent US8431888B2, “Electrospray and nanospray ionization of discrete samples in droplet format” (priority 2009, dated 2013) can be followed below.

The chains behind the UniProt entries cited, without tags or fusion partners. Residues count along the entry.
UniProt O42275, 24-633: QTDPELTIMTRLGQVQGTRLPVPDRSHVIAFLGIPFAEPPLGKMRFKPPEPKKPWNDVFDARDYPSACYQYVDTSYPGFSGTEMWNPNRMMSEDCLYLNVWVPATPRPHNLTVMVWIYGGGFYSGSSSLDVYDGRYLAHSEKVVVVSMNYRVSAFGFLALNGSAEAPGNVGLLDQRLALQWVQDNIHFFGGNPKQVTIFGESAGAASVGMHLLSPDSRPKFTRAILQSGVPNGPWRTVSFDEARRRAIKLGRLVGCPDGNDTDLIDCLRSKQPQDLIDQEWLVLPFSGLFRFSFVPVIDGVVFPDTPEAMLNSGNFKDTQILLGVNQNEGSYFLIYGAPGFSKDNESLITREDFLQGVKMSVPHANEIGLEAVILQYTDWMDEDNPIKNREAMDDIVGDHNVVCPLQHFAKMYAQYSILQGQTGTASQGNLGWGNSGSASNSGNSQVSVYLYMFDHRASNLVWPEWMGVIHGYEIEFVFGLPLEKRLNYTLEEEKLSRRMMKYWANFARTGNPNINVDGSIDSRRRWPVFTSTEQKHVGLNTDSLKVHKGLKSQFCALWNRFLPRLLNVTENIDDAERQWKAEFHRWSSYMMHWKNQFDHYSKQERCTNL

SMILES strings stand for the structures.

In the assay the target is T1, acetylcholinesterase (AchE) (Electrophorus electricus, UniProt O42275).
T1 construct: purchased Sigma (St. Louis, Mo.) Type VI-S (catalogue number not given)
Format: biochemical. As to conditions: 10 inhibitor concentrations, 20 min at room temperature, choline formation; sigmoidal dose-response fit.

Usually IC50 stands for the concentration that inhibits the measured activity by half. In turn, `CNC(=O)Oc1ccc2c(c1)[C@]1(C)CCN(C)[C@@H]1N2C` [eserine] came in with an IC50 of 63 ± 13 nM.
